# Conditions: 2% SnF2 in water, with or without pyrophosphate salt
substance,measurement,value
stannous fluoride [2% stannous fluoride solution],"appearance of solution on preparation (clear, undissolved, precipitate)",shows precipitate almost immediately

# From US10292912B2, “Personal care compositions” (Colgate-Palmolive Company, priority 2015, dated 2019)
